Test results taken from PubChem BioAssay AID485364 (National Center for Advancing Translational Sciences (NCATS), 2010).
Only a part is listed here, and it is no random draw. Active and inactive are the calls of the source. Calls follow the shape of the dose curve; as a rule, active = well fitted inhibition curve with a large enough effect; inconclusive = small, poorly fitted or top-dose-only effect; inactive = no such curve, though single readings can be large or run the other way. Entries that show only a call come without a potency.

molecular target: Schistosoma mansoni thioredoxin glutathione reductase (TGR) (UniProt Q962Y6); test: qHTS Assay for the Inhibitors of Schistosoma Mansoni Peroxiredoxins; details: purified TGR, DTNB reduction, TNB absorbance 405 nm; series mostly up to 114 µM; also: nearly all actives have a fitted effect of over 60% in size
Source text: Schistosomiasis is a major neglected tropical disease that currently affects over 200 million. It is caused by different species of flatworms, such as Schistosoma mansoni. Over the last century, drugs to treat the disease have evolved from potassium antimonyl tartrate, artemisinin, oxamniquine, to praziquantel, with praziquantel remaining the universally-used single drug of choice over the past three decades. However, transmission rates have changed little with praziquantel, and there is evidence for the development of drug resistant parasites. Because there is currently no suitable alternative therapy available, there is an urgent need to identify new targets and drugs for schistosomiasis treatment. Thioredoxin glutathione reductase (TGR), one uniquely positioned S. mansoni enzyme, has been identified as a major component of the worms' distinct and compressed antioxidant "firewall". TGR is a multifunctional enzyme that catalyzes the interconversion between reduced and oxidized forms of both glutathione (GSH) and thioredoxins, thus making it an attractive new antiparasitic target. Recently, a quantitative high-throughput screen of the NIH Molecular Libraries Small Molecule Repository (MLSMR, ~71K at the time of the screen in 2007) was performed using an assay that targeted both TGR and peroxiredoxin2 (Prx2, an H2O2-reducing enzymatic component of the S. mansoni redox "firewall") by following the decrease of NADPH fluorescence. […] Additional mechanistic link between exogenous NO donation and parasitic injury for the oxadiazole-2-oxide class of compounds was also expanded and better defined. Although the screen addressed both TGR and Prx2, the assay required post-screen target deconvolution for further characterization of the actives. In addition, the fluorescence assay was also subject to fluorescence interference from compound library members. We have developed a 1536-well-based kinetic HTS assay to address TGR alone. The assay followed the reduction of 5, 5'-dithiobis (2-nitrobenzoic acid) (DTNB) (Ellman's reagent) by NADPH and measured the increase in absorbance at 412 nm of the reaction product, TNB. […] This assay format can be used to screen the current MLSMR collection (with >300K compounds available) to find novel TGR inhibitors. Furoxan is a good choice to serve as a positive control in the primary HTS assay.
Three microliters of reagents (100 uM NADPH and 20 nM TGR or 100 uM NADPH as no-enzyme control) were dispensed into 1,536-well black clear-bottomed plates. Compounds (23 nL) were transferred via Kalypsys pin tool equipped with 1536-pin array (10 nL slotted pins, V&P Scientific, San Diego, CA). The plates were then be incubated for 15 min at room temperature, and 1 uL aliquot of 500 uM NADPH were added, immediately followed by a 1 uL aliquot of 15 mM DTNB to start the reaction. The plate was transferred to a ViewLux high-throughput CCD imager (Perkin-Elmer, Wellesley, MA) where kinetic measurements of the TNB absorbance were acquired using a 405 excitation filter. Throughout the screen, reagent bottles and all liquid lines were made light-tight to minimize reagent degradation. All screening operations were performed on a fully integrated robotic system (Kalypsys, San Diego, CA) containing one RX-130 and two RX-90 anthropomorphic robotic arms (Staubli, Duncan, SC). Library plates were screened starting from the lowest and proceeding to the highest concentration, and a "double-dipping" step of the highest concentration was required to access higher concentrations of compounds. Vehicle-only plates, with DMSO being pin-transferred to the entire column 5-48 compound area, were inserted uniformly at the beginning and the end of each library in order to monitor for and record any shifts in the background, which can be affected by reagent dispensers or loss in enzyme activity overtime. […]
Potency is read from the fitted curve at half-maximal effect.

Compound	Potency	activity change, negative = inhibition
COP1(=S)c2c(C)nn(CCC#N)c2N=C(c2ccc(F)cc2)N1C (stereo not given)	inactive	
O=C(Nc1ccncc1[N+](=O)[O-])c1ccc([N+](=O)[O-])cc1[N+](=O)[O-]	inactive	
O=C(COc1ccccc1)OC1CN2CCC1CC2 (stereo not given)	inactive	
CCOC(=O)c1ccc(NC(=O)C(C)(CCl)SC)cc1 (stereo not given)	inactive	
O=C(OC1CN2CCC1CC2)c1cccc([N+](=O)[O-])c1 (stereo not given)	inactive	
CCOC(=O)Nc1ccc([As](=O)(O)O)c(O)c1	inactive	
Cc1cc(SC(NC(=O)c2ccccc2)C(Cl)(Cl)Cl)nc(C(C)C)n1 (stereo not given)	inactive	
CCCCOc1ccc(C(=O)NCC2(N3CCCCC3)CCCCC2)cc1OC	inactive	
CCOC(=O)Nc1cccc([As](=O)(O)O)c1	active: 28.2 µM	
O=[N+]([O-])c1ccc(Nc2ccc(Oc3ccc([N+](=O)[O-])cc3[N+](=O)[O-])cc2)c([N+](=O)[O-])c1	inactive	
COc1cc(C(=O)NCC2(N3CCOCC3)CCCCC2)ccc1OCC(C)C	inactive	
O=[As](O)(c1ccc(O)cc1)c1ccccc1O	inactive	
C[As](=O)(O)c1cccc(C(=O)O)c1	inactive	
Cc1ccc2nc3c(c(C)c2c1)CC(C(Cl)Cl)S3 (stereo not given)	inactive	
Cc1ccc(OP(=O)(Nc2ccc([N+](=O)[O-])cn2)Oc2ccc(C)cc2)cc1	inactive	
CC(C)c1ccc(OP(=O)(Nc2ccccn2)Oc2ccccc2F)cc1 (stereo not given)	inactive	
ClCCSc1nnc(-c2cccnc2)o1	inactive	
CCN(CC)C(=S)SC(NC=O)C(Cl)(Cl)Cl (stereo not given)	inactive	
CC(C)NC(=O)NP(=O)(Oc1ccccc1)Oc1ccccc1	inactive	
Cc1cc(=O)[nH]c(N[N+](=O)[O-])n1	inactive	
O=C(OC1CN2CCC1CC2)C12CC3CC(CC(C3)C1)C2 (stereo not given)	inactive	
Cc1c2c(nc3ccccc13)SC(C(Cl)Cl)C2 (stereo not given)	inactive	
COc1cc(I)ccc1[As](=O)(O)O	active: 1.41 µM	
COc1ccc2nc(NP(=O)(c3ccccc3)c3ccccc3)sc2c1	inactive	
COc1ccc(N/C(=N/P(=O)(N2CCOCC2)N2CCOCC2)N2CCOCC2)cc1	inactive	

Compound	Potency	activity change, negative = inhibition
CS(=O)(=O)c1ccc(Cl)c(NC(=O)COC(=O)C(O)(c2ccccc2)c2ccccc2)c1	inactive	
COc1cc(C(=O)NCC2(N3CCOCC3)CCCCC2)cc(Cl)c1OC(C)C	inactive	
O=[As](O)(O)c1cccnc1	active: 1.41 µM	
O=C(OC1CN2CCC1CC2)c1ccc(Cl)cc1 (stereo not given)	inactive	
Cc1cccc(OCC(=O)OC2CN3CCC2CC3)c1 (stereo not given)	inactive	
CCCOP(=S)(Nc1nc(N)cc(=O)[nH]1)OCCC	inactive	
Nc1cccc2c([As](=O)(O)O)cccc12	active: 15.8 µM	
CCOP(=O)(Nc1cccc2ccccc12)OCC	inactive	
COc1cc(C2NCCC3(OCCO3)C2(C)C)cc(OC)c1OC (stereo not given)	inactive	
CS(=O)(=O)c1cc([N+](=O)[O-])c2no[n+]([O-])c2c1	active: 5.01 µM	
O=P(Nc1nccs1)(c1ccccc1)c1nc2ccccc2s1 (stereo not given)	active: 0.282 µM	
O=P(Nc1nccs1)(Oc1ccccc1)Oc1ccccc1	inactive	
CCOP1(=S)c2c(C)nn(CCC#N)c2N=C(c2ccccc2F)N1C (stereo not given)	inactive	
O=C(O)COc1ccc([As](=O)(O)O)cc1[N+](=O)[O-]	active: 17.8 µM	
O=[N+]([O-])c1ccc2c(c1)nnn2O	inactive	
CN(C(=O)Cc1ccccc1)[C@@H]1CC[C@]2(CCCO2)C[C@H]1N1CCCC1	inactive	
CCOP1(=S)c2c(C)nn(CCC#N)c2N=C(c2ccc(F)cc2)N1C (stereo not given)		inactive: 7.82% [at 11.4 µM]
N#CCCN(C(=O)COC(=O)C(O)(c1ccccc1)c1ccccc1)c1ccc(F)cc1	inactive	
CC1CCC(C(C)C)C(OP(=O)(Nc2ccccn2)c2ccccc2)C1 (stereo not given)	inactive	
Cc1ccc(C(=O)OC2CN3CCC2CC3)cc1 (stereo not given)	inactive	
Cc1nn(-c2ccccc2)c2c1P(=O)(N1CCOCC1)N(C)C(c1ccccc1)=N2 (stereo not given)	inactive	
O=C(/C=C/c1ccccc1)OC1CN2CCC1CC2 (stereo not given)	inactive	
CN(C)C1(CNC(=O)c2ccc(S(C)(=O)=O)cc2)CCCCC1	inactive	
O=P1(Nc2ncccn2)COc2ccccc2OC1	inactive	
O=P1(Nc2ccc(Br)cn2)COc2ccccc2OC1	inactive	

Compound	Potency	activity change, negative = inhibition
NS(=O)(=O)c1cccc(NC(=O)COC(=O)C(O)(c2ccccc2)c2ccccc2)c1	inactive	
O=[As](O)(c1cccs1)c1cccs1	active: 5.62 µM	
Cc1ccc(OCC(=O)OC2CN3CCC2CC3)cc1 (stereo not given)	inactive	
Nc1cccc([As](=O)(O)c2ccccc2)c1	inactive	
CCOP(=O)(Nc1ccc(C)cn1)OCC	inactive	
CCOP(=O)(NC(=NC(C)c1ccccc1)NC(C)c1ccccc1)OCC (stereo not given)	inactive	
O=P1(Nc2ccccn2)COc2ccccc2OC1	inactive	
CCC1=CC2Cc3nc4ccc(Cl)cc4c(N)c3C(C1)C2 (stereo not given)	inactive	
CC(C)(C)C(=O)NC(Sc1ncccn1)C(Cl)(Cl)Cl (stereo not given)	active: 1.41 µM	
Clc1n[nH]nc1-c1nn[nH][15n]1	inactive	
COc1ccccc1CNC(=O)COC(=O)C(O)(c1ccccc1)c1ccccc1	inactive	
O=[As](O)(c1ccccc1Br)c1ccccc1Br	inactive	
CC(C)/C=N\N=C(\N)N[N+](=O)[O-]	inactive	
CN(C(=O)Cc1ccc(Cl)c(Cl)c1)[C@@H]1CCCC[C@H]1N1CCCC1	inactive	
CC(C)C(=O)NC(Sc1ccccc1)C(Cl)(Cl)Cl (stereo not given)	inactive	
O=P(Nc1nccs1)(c1ccccc1)c1ccccc1	inactive	
c1nnnn1CCn1cnnn1	inactive	
CN(C)C1(CNC(=O)c2ccc(Cl)c(S(N)(=O)=O)c2)CCCCC1	inactive	
C[C@H]1OP(=O)(Oc2ccccc2)[C@H](O)[C@H](O)[C@H]1N=[N+]=[N-] (stereo not given in full)	inactive	
O=P(Nc1nc2ccccc2s1)(c1ccccc1)c1ccccc1	inactive	
O=[N+]([O-])c1ncn(CCn2cnc([N+](=O)[O-])n2)n1	inactive	
CC(=O)NC(SC(=S)N(C)C)C(Cl)(Cl)Cl (stereo not given)	active: 25.1 µM	
O=[As](O)(c1ccccc1)c1ccc(O)cc1	active: 35.5 µM	
C(Cc1nn[nH]n1)Cc1nn[nH]n1	inactive	
O=C(OC1CN2CCC1CC2)c1cccc(Cl)c1 (stereo not given)	inactive	

Compound	Potency	activity change, negative = inhibition
O=C(NC1CCS(=O)(=O)C1)NP(=S)(Oc1ccccc1)Oc1ccccc1 (stereo not given)	inactive	
Cc1ccc(NP(=O)(Oc2cccc(C)c2)Oc2cccc(C)c2)nc1	inactive	
c1ccc(-c2nn[nH]n2)c(-c2nn[nH]n2)c1	inactive	
Cc1ccc(OP(=O)(Nc2ccccn2)Oc2ccc(C)cc2)cc1	inactive	
COC(=O)c1cc2c(s1)N=C(c1ccccc1)N(C)P2(=O)N1CCOCC1 (stereo not given)	inactive	
CCC(=O)N1C2C3N(C(=O)CC)C1C1N(C(=O)CC)C(C(N1C(=O)CC)N3C(=O)CC)N2C(=O)CC	inactive	
O=C(OC1CN2CCC1CC2)c1ccccc1 (stereo not given)	inactive	
CN(C)C(=O)Oc1noc2ccccc12	inactive	
Cc1ccccc1OP(=O)(Nc1ccccn1)Oc1ccccc1C	inactive	
CCOc1ccc(C2=NCC(CBr)S2)cc1 (stereo not given)	inactive	
O=P1(Nc2nc3ccc(Cl)cc3s2)COc2ccccc2O1 (stereo not given)	inactive	
CC(C)(C)C(=O)NC(Sc1ccccc1)C(Cl)(Cl)Cl (stereo not given)	inactive	
CC(=O)c1ccc(N2CC2c2ccncc2)cc1 (stereo not given)	inactive	
C[C@@H]1C=CCP(=O)(Oc2ccccc2)O1 (stereo not given in full)	inactive	
C[C@H]1OP(=O)(Oc2ccccc2)C[C@@H]2O[C@@H]21 (stereo not given in full)	inactive	
Cc1ccccc1CN(C)C(=O)COC(=O)C(O)(c1ccccc1)c1ccccc1	inactive	
CC(=O)Nc1ccc(Oc2c([N+](=O)[O-])cc([N+](=O)[O-])cc2[N+](=O)[O-])cc1	inactive	
CC(=O)Nc1ccc([As](=O)(O)O)c(O)c1	active: 12.6 µM	
NC(=O)c1cc([N+](=O)[O-])cc([N+](=O)[O-])c1N	inactive	
Cc1ccc(N/C(=N/P(=O)(N2CCOCC2)N2CCOCC2)N2CCOCC2)cc1	inactive	
CN(C(=O)Cc1ccc(Cl)c(Cl)c1)[C@H]1CCCC[C@H]1N1CCCC1	inactive	
Cc1ccc(OP(=O)(Nc2nccs2)Oc2ccc(C)cc2)cc1	inactive	
COc1ccccc1OP(=O)(Nc1ccc(C)cn1)Oc1ccccc1OC	inactive	
Clc1ccc(Cl)c(NC2=NCC(CBr)S2)c1 (stereo not given)	active: 3.98 µM	
CN1CCCC(OC(=O)C(c2ccccc2)c2ccccc2)C1 (stereo not given)	inactive	

Compound	Potency	activity change, negative = inhibition
CC(C)CC(=O)NC(Sc1ccc(Cl)cc1)C(Cl)(Cl)Cl (stereo not given)	inactive	
Nc1cc(N)c2nonc2c1[N+](=O)[O-]	active: 50.1 µM	
Oc1ccccc1CNc1ccccn1	inactive	
O=C(O)c1ccccc1[As](=O)(O)O	active: 1.41 µM	
O=P(Nc1nc2ccc(Cl)cc2s1)(c1ccccc1)c1ccccc1	inactive	
Cc1ccc(NP(=O)(Oc2ccccc2F)Oc2ccccc2F)nc1	inactive	
CCOP(=O)(Nc1ccccc1)OCC	inactive	
Cc1cc(SC(NC(=O)c2ccc(F)cc2)C(Cl)(Cl)Cl)ncn1 (stereo not given)	inactive	
O=[N+]([O-])c1cc([N+](=O)[O-])c(CCN2CCOCC2)c([N+](=O)[O-])c1	active: 11.2 µM	
CCN(N=Nc1nonc1N)c1nonc1N	inactive	
Nc1cccc2ccc([As](=O)(O)O)cc12	active: 39.8 µM	
O=C(Nc1cc([As](=O)(O)O)ccc1O)c1ccccc1	active: 6.31 µM	
CC(C)(C)C(=O)NC(Sc1ccncn1)C(Cl)(Cl)Cl (stereo not given)	active: 3.16 µM	
O=[N+]([O-])c1ncn(CCn2ncnc2[N+](=O)[O-])n1	inactive	
O=[N+]([O-])c1cccc(NC2=NCC(CBr)S2)c1 (stereo not given)	active: 22.4 µM	
COc1ccc(C2=NCC(CBr)S2)cc1 (stereo not given)	inactive	
O=[N+]([O-])c1cccc2n[nH]nc12	inactive	
CC(=O)N1C2C3N(C(C)=O)C1C1N(C(C)=O)C(C(N1C(C)=O)N3C(C)=O)N2C(C)=O	inactive	
CCc1nc2c(n1)c1c(non1O)c1c2no[n+]1[O-]	active: 15.8 µM	
O=[N+]([O-])c1cc([N+](=O)[O-])c(CCNc2ccccc2)c([N+](=O)[O-])c1	active: 2.51 µM	
Cc1ccc(NP(=O)(Oc2ccccc2)Oc2ccccc2)nc1	inactive	
Nc1ccc([As](=O)(O)c2ccc(N)cc2)cc1	inactive	
CCN(/C(=N/P(=O)(N1CCOCC1)N1CCOCC1)N1CCOCC1)c1ccc(OC)cc1	inactive	
CN(C)C(=O)OCCc1n(C)cc[n+]1C	inactive	
CC1CCN(C(=O)Oc2c(Cl)cc(Cl)c3cccnc23)CC1	inactive	
